Measurements from paper PMC9814838, “The orphan nuclear receptor Nurr1 is responsive to non-steroidal anti-inflammatory drugs” (Communications Chemistry, 2020).

By UniProt entry, the sequences of proteins in these tests, tags left out. Residues count along the entry.
UniProt P43354, 364-598: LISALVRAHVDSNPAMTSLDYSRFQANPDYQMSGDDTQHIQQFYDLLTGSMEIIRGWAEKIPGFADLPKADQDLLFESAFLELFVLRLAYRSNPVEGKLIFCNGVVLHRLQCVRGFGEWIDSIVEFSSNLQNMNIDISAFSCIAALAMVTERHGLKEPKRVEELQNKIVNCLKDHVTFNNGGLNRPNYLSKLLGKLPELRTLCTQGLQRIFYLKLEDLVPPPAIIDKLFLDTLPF

Legend:
Nurr1 LBD / NCoR ID1 = Nurr1 LBD / NCoR ID1 (Homo sapiens, UniProt P43354); experiment: Co-regulator recruitment HTRF, NCoR ID1 peptide
Nurr1 LBD / SMRT ID2 = Nurr1 LBD / SMRT ID2 (Homo sapiens, UniProt P43354); experiment: Co-regulator recruitment HTRF, SMRT ID2 peptide
Nurr1 LBD / RIP140L6 = Nurr1 LBD / RIP140L6 (Homo sapiens, UniProt P43354); experiment: Co-regulator recruitment HTRF, RIP140L6 peptide
Nurr1 LBD / PRIPRAP250 = Nurr1 LBD / PRIPRAP250 (Homo sapiens, UniProt P43354); experiment: Co-regulator recruitment HTRF, PRIPRAP250 peptide

For CCN(CC)CCCC(C)Nc1ccnc2cc(Cl)ccc12 (stereo not drawn) [CQ, chloroquine], the EC50 (Nurr1 LBD / NCoR ID1) was over 100 µM, the EC50 (Nurr1 LBD / SMRT ID2) was over 100 µM and the EC50 (Nurr1 LBD / RIP140L6) was 61 µM. For the same molecule, the EC50 (Nurr1 LBD / PRIPRAP250) was over 100 µM.

For CCC(=O)NS(=O)(=O)c1ccc(-c2c(-c3ccccc3)noc2C)cc1 [parecoxib], the IC50 (Nurr1 LBD / NCoR ID1) was 89 µM, the IC50 (Nurr1 LBD / SMRT ID2) was 51 µM and the “RIP140L6 recruitment, activity in words” value (Nurr1 LBD / RIP140L6; […]) was “Inactive”. For the same molecule, the “PRIPRAP250 recruitment, activity in words” value (Nurr1 LBD / PRIPRAP250; […]) was “Inactive”.

For Cc1ccc(Cl)c(Nc2ccccc2C(=O)O)c1Cl [MFA, Meclofenamic acid], the IC50 (Nurr1 LBD / NCoR ID1) was 34 µM, the IC50 (Nurr1 LBD / SMRT ID2) was 26 µM and the IC50 (Nurr1 LBD / RIP140L6) was 33 µM. For the same molecule, the IC50 (Nurr1 LBD / PRIPRAP250) was 17 µM.
